Usually pIC50 stands for −log10 of the IC50, conventionally taken in molar units.

pIC50: −log10 of the molar value. Some results are limits rather than exact numbers.

Consider 1 compound from US5919765A, “Inhibitors of factor XA” (COR Therapeutics, Inc., priority 1995, dated 1999).

The target of this assay is T1, thrombin (Homo sapiens, UniProt P00734).
T1 construct: The formation of thrombin is the result of the proteolytic cleavage of its precursor prothrombin
The assay can be described thus: Thrombin amidolytic assay (chromogenic substrate Chromozym TH). As to conditions: read-out: Inhibitory Activity (IC50) Thrombin. It is filed as biochemical.

Consider `C[C@@H](NC(=O)[C@@H](CCCNC(=N)N)NC(=O)OC(C)(C)C)C(=O)N[C@H](C=O)CCCNC(=N)N` [Boc--D--Arg--D--Ala--Arg--H, Boc-D-Arg-D-Ala-Arg--H], for which the pIC50 was < 5.00.
